Biological target: T1, Histone-lysine N-methyltransferase NSD3 (Homo sapiens, UniProt Q9BZ95)
T1 sequence (Q9BZ95 whole entry): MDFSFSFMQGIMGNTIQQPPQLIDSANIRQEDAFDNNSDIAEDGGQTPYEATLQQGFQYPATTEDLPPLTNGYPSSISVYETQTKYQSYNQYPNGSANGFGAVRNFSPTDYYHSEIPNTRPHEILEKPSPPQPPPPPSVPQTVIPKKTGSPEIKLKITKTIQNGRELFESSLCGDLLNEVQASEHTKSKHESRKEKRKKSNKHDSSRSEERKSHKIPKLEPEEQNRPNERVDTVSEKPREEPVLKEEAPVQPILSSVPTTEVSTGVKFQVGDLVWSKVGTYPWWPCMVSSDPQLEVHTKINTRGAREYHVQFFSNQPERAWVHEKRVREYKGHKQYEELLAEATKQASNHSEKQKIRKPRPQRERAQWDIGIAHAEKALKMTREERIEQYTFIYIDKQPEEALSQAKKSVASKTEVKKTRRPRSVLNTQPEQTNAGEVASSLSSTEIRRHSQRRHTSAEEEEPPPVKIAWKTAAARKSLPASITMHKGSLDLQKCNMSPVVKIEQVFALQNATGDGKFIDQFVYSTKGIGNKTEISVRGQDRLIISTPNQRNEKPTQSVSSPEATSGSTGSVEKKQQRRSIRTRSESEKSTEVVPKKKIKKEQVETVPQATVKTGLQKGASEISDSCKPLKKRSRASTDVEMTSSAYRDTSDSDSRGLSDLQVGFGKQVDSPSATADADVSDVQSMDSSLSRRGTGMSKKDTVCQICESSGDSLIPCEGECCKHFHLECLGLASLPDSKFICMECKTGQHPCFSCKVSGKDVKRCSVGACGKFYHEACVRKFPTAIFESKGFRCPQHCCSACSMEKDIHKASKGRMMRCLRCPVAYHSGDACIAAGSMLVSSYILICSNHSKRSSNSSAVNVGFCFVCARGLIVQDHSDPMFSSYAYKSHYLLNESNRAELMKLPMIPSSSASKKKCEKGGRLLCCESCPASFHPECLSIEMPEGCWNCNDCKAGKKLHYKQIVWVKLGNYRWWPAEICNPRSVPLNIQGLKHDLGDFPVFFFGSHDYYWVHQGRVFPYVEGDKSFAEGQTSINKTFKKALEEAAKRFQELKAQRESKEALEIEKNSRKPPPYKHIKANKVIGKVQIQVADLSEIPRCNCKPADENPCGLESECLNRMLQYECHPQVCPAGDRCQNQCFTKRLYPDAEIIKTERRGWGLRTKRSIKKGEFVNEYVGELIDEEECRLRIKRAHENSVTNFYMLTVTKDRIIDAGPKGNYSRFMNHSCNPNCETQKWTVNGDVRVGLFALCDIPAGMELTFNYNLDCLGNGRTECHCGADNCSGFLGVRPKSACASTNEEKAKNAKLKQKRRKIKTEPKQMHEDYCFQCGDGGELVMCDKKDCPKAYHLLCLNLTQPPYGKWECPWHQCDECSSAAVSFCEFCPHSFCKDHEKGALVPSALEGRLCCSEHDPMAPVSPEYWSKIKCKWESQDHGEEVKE
Assay: Inhibition of GST-tagged NSD3-PWWP1 domain (247 to 398 residues) (unknown origin) by TR-FRET assay

- IC50: 200 nM
Structure (SMILES): Cc1cc(CN)cc(C)c1-c1ncn(C)c1-c1ccnc2cc(F)ccc12

Reference: ChEMBL document CHEMBL5120900, “Structure-Based Discovery of a Series of NSD2-PWWP1 Inhibitors” (J Med Chem, 2022)
